Measured values: the supplement of paper PMC9942566
± gives the standard deviation of the averaged measurements. The entries are a selection whose mix differs from that of the whole data set.

The compounds below were run on Serratia marcescens K904 PosmB-luxCDABE reporter (pMQ747) (assay: PosmB-lux reporter fold induction (RLU/OD600 relative to no-compound control), highest over Biolog concentrations; higher = stronger Rcs reporter activation). Conditions: Biolog plate: PM18; well positions: D5-8; wild type K904; 4 h.
Method: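 Serratia marcescens K904 (wild type) or its isogenic ΔrcsB mutant, carrying the Rcs-dependent PosmB-luxCDABE reporter plasmid pMQ747, was grown in LB at OD600 0.1 in Biolog Phenotype MicroArray plates PM11-20 for 4 h at 30-32°C. Each compound is present at 3-4 proprietary concentrations (not stated); per the Fig. S1 legend the value given is the highest fold over those wells. Three independent trials.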
`[O-][Br+2]([O-])O` [sodium bromate] was tested, and the “PosmB-lux reporter fold induction” value was 1.23 ± 0.28.
